From ChEMBL document CHEMBL6078645, “Expanding the Solvent/Protein Region Occupation of the Non-Nucleoside Reverse Transcriptase Inhibitor Binding Pocket for Improved Broad-Spectrum Anti-HIV-1 Efficacy: from Rigid Phenyl-Diarylpyrimidines to Flexible Hydrophilic Piperidine-Diarylpyrimidines” (J Med Chem, 2024)

Target: Human immunodeficiency virus type 1 reverse transcriptase (Human immunodeficiency virus 1, UniProt Q72547)
Assay: Inhibition of HIV-1 reverse transcriptase

`Cc1cc(C#N)cc(C)c1Oc1nc(Nc2ccc(C#N)cc2)nc(N)c1Br` [ETRAVIRINE] was tested, and the EC50 was 3 nM.
